These results are taken from paper PMC9814530, “Rapid de novo discovery of peptidomimetic affinity reagents for human angiotensin converting enzyme 2” (Communications Chemistry, 2022).

Protein sequences, listed by entry. Tags and fused reporters are not part of them. Residues count along the entry.
UniProt Q9BYF1, 18-740 limits assumed: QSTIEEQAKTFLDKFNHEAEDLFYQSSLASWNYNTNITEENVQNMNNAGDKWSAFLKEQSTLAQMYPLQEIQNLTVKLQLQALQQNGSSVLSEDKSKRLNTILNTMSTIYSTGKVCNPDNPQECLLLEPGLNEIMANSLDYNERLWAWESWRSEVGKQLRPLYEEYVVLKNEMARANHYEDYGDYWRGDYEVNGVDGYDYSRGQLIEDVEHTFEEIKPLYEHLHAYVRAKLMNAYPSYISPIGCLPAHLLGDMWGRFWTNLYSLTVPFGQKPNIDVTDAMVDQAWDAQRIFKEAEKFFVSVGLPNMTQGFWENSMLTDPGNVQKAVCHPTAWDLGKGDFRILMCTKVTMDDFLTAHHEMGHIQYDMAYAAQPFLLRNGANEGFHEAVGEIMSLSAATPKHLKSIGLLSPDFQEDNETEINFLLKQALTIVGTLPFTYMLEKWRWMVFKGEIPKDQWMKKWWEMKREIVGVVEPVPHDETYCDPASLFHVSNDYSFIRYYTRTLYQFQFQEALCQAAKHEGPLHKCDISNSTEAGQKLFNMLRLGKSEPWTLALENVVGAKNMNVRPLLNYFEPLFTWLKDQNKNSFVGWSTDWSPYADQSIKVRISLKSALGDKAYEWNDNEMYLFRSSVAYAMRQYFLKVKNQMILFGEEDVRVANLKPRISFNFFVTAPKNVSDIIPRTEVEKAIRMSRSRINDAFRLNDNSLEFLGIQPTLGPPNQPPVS

This assay addresses ACE2 (Homo sapiens, UniProt Q9BYF1). The assay is described as follows: Bio-layer interferometry (BLI) binding of immobilized biotinylated peptides to ACE2. Conditions: biotinylated peptide on streptavidin tips, ACE2 1000-62.5 nM, 30 °C, global 1:1 fit, read-out: KD (dissociation constant) to ACE2. As to the method: Peptide binding validation was carried out using the ForteBio Octet RED96 system. The chamber temperature was kept constant at 30 °C with a plate agitation speed at 1000 rpm. Briefly, streptavidin (SA)-coated biosensor tips were dipped into 200 μL of 1.0–2.0 μM biotinylated peptide solution (in a kinetic buffer (K.B.): 1 × PBS with 0.1% BSA and 0.02% Tween-20) for peptides immobilization. Once loaded with peptides, the tips were then moved into solutions containing various concentrations (1000, 500, 250, 125, and 62.5 nM) of recombinant ACE2 protein (purchased from Sino Biological, Catalog number 10108-H08H) in the K.B. to obtain the association curve. After the 180 s association step, the tips were moved back into the K.B. to obtain the dissociation curve. Buffer-only and protein-only conditions (concentration at 1000 nM) were used as references for background subtraction. The association and dissociation curves were fitted with the ForteBio Biosystems Data Analysis Software under 5 experimental conditions (n = 5, global fitting algorithm, binding model 1:1) to calculate the apparent dissociation constant (KD). […]
affinity was reported using the kinetic fitting results ( KD is calculated by divide the […]
scrambled sequences, Scrm N1.1 and Scrm N1.2, measured by BLI. […]
N6, and N8 to an unrelated protein, 12ca5, measured by BLI at concentration

Take `COc1ccc(C[C@H](NC(=O)[C@H](Cc2ccc(F)c(F)c2)NC(=O)[C@@H]2C[C@@H](O)CN2C(=O)[C@H]2CCCN2C(=O)[C@H]2CCCN2C(=O)CNC(=O)[C@H](CC2CC2)NC(=O)[C@H](Cc2cscn2)NC(=O)[C@@H](N)CC2CC2)C(=O)N[C@@H](Cc2cscn2)C(=O)NCCC(=O)NCc2ccc(C(=O)N[C@@H](CCCCN)C(N)=O)cc2)cc1OC` [ABP N4]: the Kd amounted to 123 nM.

Regarding `CS(=O)(=O)CC[C@H](NC(=O)[C@H](Cc1ccc(F)c(F)c1)NC(=O)[C@H](CCCN)NC(=O)[C@@H](N)CC1CC1)C(=O)N1C[C@H](O)C[C@H]1C(=O)N[C@@H](Cc1cscn1)C(=O)N1CCC[C@@H]1C(=O)N[C@@H](CCC(N)=O)C(=O)N[C@@H](Cc1ccc(F)c(F)c1)C(=O)N[C@@H](CC1CCCCC1)C(=O)N[C@@H](CC1CCCCC1)C(=O)NCCC(=O)N[C@@H](CCCCN)C(N)=O` [ABP N6], the Kd is 33 nM.

Broadly, the Kd is the constant that tells how readily two partners part at equilibrium.
